Measured values from patent US20070037193A1, “Modulation of peroxisome proliferator-activated receptors” (priority 2005, published 2007).

Test system: 3T3-L1 cells
Assay: Glucose transport assay, uptake of 2-deoxy-D-[3H] glucose in differentiated 3T3-L1 cells
Assay type: cell-based
Conditions: insulin treatment alone, 100 nM
Method: The effect of two of the above-described PGR3/ZADH2 inhibitors, i.e., compounds 12 and 28, on insulin sensitivity was examined as follows. 3T3-L1 cells were induced to differentiate in the same manner as described above. A glucose transport assay was performed by measuring uptake of 2-deoxy-D-[^3H] glucose according to the method described in Fingar et al. (Endocrinology 134:728-735). 1.67 μM of the inhibitor or 45 nM of a PPAR-gamma agonist, i.e., AVANDIA, was added to the cells.
10 μM cytochalasin-B was used to measure background glucose uptake levels. 100 nM of insulin was used to stimulate glucose uptake. Insulin treatment alone in differentiated 3T3-L1 cells increased glucose uptake by more than 10 folds. In the presence of either of those two PGR3/ZADH2 inhibitors, glucose uptake was increased by 30 folds.

Question: Insulin was tested. Which “increase of glucose uptake” value did it give?
Answer: more than 10 folds
